A word on the Ki: it is a dissociation constant, usually derived from enzyme kinetics or from competition with a known ligand. Read a high Ki as weaker binding.

Amino acid sequences for entries named in this document (tags omitted). Residues count along the entry.
UniProt P98170, 241-356: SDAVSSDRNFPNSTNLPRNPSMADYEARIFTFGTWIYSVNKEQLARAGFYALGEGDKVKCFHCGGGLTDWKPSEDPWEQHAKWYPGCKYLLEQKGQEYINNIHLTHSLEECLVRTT

Ki data for one molecule are collected here from BindingDB's records for doi:10.1016/j.jmb.2008.09.064 (University of Milano, 2008).

In the assay the target is E3 ubiquitin-protein ligase XIAP [241-356] (Homo sapiens, UniProt P98170).

Turning to `CC[C@H](N)C(=O)N[C@H]1CCC[C@H]2CC[C@@H](C(=O)NC(c3ccccc3)c3ccccc3)N2C1=O` [JMC517169 Compound 12], the Ki was 420 nM. This lies in the sub-micromolar range.
